Legend:
Homo sapiens [1] = species on record: Homo sapiens; experiment: Selectivity ratio of Kd(free) for TNK1 in SILAC-labeled human MDA-MB-231 cells lysate to Kd(free) for AXL in SILAC-labeled human MDA-MB-231 cells lysate
Homo sapiens [2] = species on record: Homo sapiens; experiment: Selectivity ratio of Kd(free) for MAP4K5 in SILAC-labeled human MDA-MB-231 cells lysate to Kd(free) for AXL in SILAC-labeled human MDA-MB-231 cells lysate
Homo sapiens [3] = species on record: Homo sapiens; experiment: Selectivity ratio of Kd(free) for LYN in SILAC-labeled human MDA-MB-231 cells lysate to Kd(free) for AXL in SILAC-labeled human MDA-MB-231 cells lysate
Homo sapiens [4] = species on record: Homo sapiens; experiment: Selectivity ratio of Kd(free) for RIPK2 in SILAC-labeled human MDA-MB-231 cells lysate to Kd(free) for AXL in SILAC-labeled human MDA-MB-231 cells lysate
Homo sapiens [5] = species on record: Homo sapiens; experiment: Selectivity ratio of Kd(free) for PLK4 in SILAC-labeled human MDA-MB-231 cells lysate to Kd(free) for AXL in SILAC-labeled human MDA-MB-231 cells lysate
Homo sapiens [6] = species on record: Homo sapiens; experiment: Selectivity ratio of Kd(free) for FYN in SILAC-labeled human MDA-MB-231 cells lysate to Kd(free) for AXL in SILAC-labeled human MDA-MB-231 cells lysate
Homo sapiens [7] = species on record: Homo sapiens; experiment: Selectivity ratio of Kd(free) for ABL2 in SILAC-labeled human MDA-MB-231 cells lysate to Kd(free) for AXL in SILAC-labeled human MDA-MB-231 cells lysate
Homo sapiens [8] = species on record: Homo sapiens; experiment: Selectivity ratio of Kd(free) for EGFR in SILAC-labeled human MDA-MB-231 cells lysate to Kd(free) for AXL in SILAC-labeled human MDA-MB-231 cells lysate
Homo sapiens [9] = species on record: Homo sapiens; experiment: Selectivity ratio of Kd(free) for CSK in SILAC-labeled human MDA-MB-231 cells lysate to Kd(free) for AXL in SILAC-labeled human MDA-MB-231 cells lysate
Homo sapiens [10] = species on record: Homo sapiens; experiment: Selectivity ratio of Kd(free) for YES in SILAC-labeled human MDA-MB-231 cells lysate to Kd(free) for AXL in SILAC-labeled human MDA-MB-231 cells lysate
Homo sapiens [11] = species on record: Homo sapiens; experiment: Selectivity ratio of Kd(free) for C-MET in SILAC-labeled human MDA-MB-231 cells lysate to Kd(free) for AXL in SILAC-labeled human MDA-MB-231 cells lysate
Homo sapiens [12] = species on record: Homo sapiens; experiment: Selectivity ratio of Kd(free) for ACVR1 in SILAC-labeled human MDA-MB-231 cells lysate to Kd(free) for AXL in SILAC-labeled human MDA-MB-231 cells lysate
Homo sapiens [13] = species on record: Homo sapiens; experiment: Selectivity ratio of Kd(free) for AURKB in SILAC-labeled human MDA-MB-231 cells lysate to Kd(free) for AXL in SILAC-labeled human MDA-MB-231 cells lysate
Homo sapiens [14] = species on record: Homo sapiens; experiment: Selectivity ratio of Kd(free) for LIMK1 in SILAC-labeled human MDA-MB-231 cells lysate to Kd(free) for AXL in SILAC-labeled human MDA-MB-231 cells lysate

Measured: Ratio

COc1cc2c(Oc3ccc(NS(=O)(=O)c4c(F)cccc4F)cc3F)ccnc2cc1OCCCN1CCN(C)CC1
not listed: Homo sapiens [11] | Homo sapiens [12] | Homo sapiens [13] | Homo sapiens [14]
10: all other assays above

COc1cc2c(Oc3ccc(NS(=O)(=O)c4cc(F)ccc4F)cc3F)ccnc2cc1OCCCN1CCN(C)CC1
not listed: Homo sapiens [9] | Homo sapiens [10]
10: all other assays above

Reference: ChEMBL document CHEMBL4371006, “Discovery of N-[4-(Quinolin-4-yloxy)phenyl]benzenesulfonamides as Novel AXL Kinase Inhibitors” (J Med Chem, 2018)
